What was measured:
[1] = Circular dichroism of enzymes on binding to bare or hydrophobin-coated colloidal TEFLON; format: physicochemical; settings: bare colloidal TEFLON
[2] = Different enzymes immobilized via SC3 hydrophobin on TEFLON, spectrophotometry at 412 and 435 nm; format: biochemical; settings: SC3-coated TEFLON
Procedure: Oxido-reductases (glucose oxidase, peroxidase laccase), hydrolases (lipase, esterase) and a protease (tryspin) were immobilized via the SC3 hydrophobin on TEFLON™. The surface was first coated with SC3 hydrophobin by immersion in the protein aqueous solution (0.3 mg/mL) during approximately 30 minutes. The obtained modified surface was then immersed in an aqueous enzyme solution during approximately 30 minutes. After each step, the TEFLON™ surface was rinsed with an adequate buffer solution. Activity of the immobilized enzymes was followed by spectrophotometry at 412 and 435 nm after immersion of the functionalized surface in the corresponding substrate solution. The optical density of the solution increases after the immersion of the functionalized surface and stays constant after its removal. […] The functionalized TEFLON® was stored at 4° C. in an Eppendorf tube containing a buffer solution.
Enzymes used: glucose oxidase from Aspergillus niger (SIGMA; 210 U/mg of solid, final concentration 1.0 mg/mL), horseradish peroxidase (SIGMA; 1520 U/mg of solid, final concentration 0.14 mg/mL), laccase from Trametes sp. (Biocatalysts, Wales; final concentration 2.1 mg/mL), lipase from Candida cylindracea (Biocatalysts, Wales; final concentration 0.25 mg/mL), porcine liver esterase (SIGMA; 41 U/mg of solid, final concentration 2.4 mg/mL), bovine pancreas trypsin (SIGMA; 8,750 U/mg of solid). […]

[3] = stored in a sealed container, not in liquid, at 4° C., tested frequently
Procedure: Glassy carbon electrode was coated with hydrophobin by placing the electrode in a solution of hydrophobin (100 μg/ml) and incubating for 15 minutes, after which the electrode was thoroughly rinsed with water.
The electrode, modified and functionalized with the enzyme, was placed in a three electrode system, including an Ag/AgCl reference electrode and a Pt counter electrode, using phosphate buffer pH 7 (25 mM).
The modified electrode was stored in a sealed container, not in liquid, at 4° C., and tested frequently for activity and response to glucose.

What does the source list for glucose oxidase?
structural change in CD-spectra upon binding [1]: underwent structural changes; state of immobilized enzymes (denaturation, desorption) [2]: not denatured and are not desorbed from the surface; function after storage ([2]; 4° C. in buffer solution): still functional after several weeks; period tested over which the electrode maintained its activity [3]: 67 days

Source: US20050238685A1, “Method of binding a compound to a surface” (priority 2002, published 2005)
